Among the data in PubChem BioAssay (NCI) are growth inhibition values, retold here.

Test [1] can be described thus: NCI Yeast Anticancer Drug Screen. Data for the rad50 strain (AID 155).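 Further: 0% = growth of vehicle-only cultures of the same strain.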 To be noted: S. cerevisiae rad50 strain growth inhibition; at 50.0 µM; active compounds read high.
A short description of test [2]: NCI Yeast Anticancer Drug Screen. Data for the mec2-1 strain (AID 157). To be noted: S. cerevisiae mec2-1 strain, at 50.0 µM, active compounds read high.
Test [3] is described as follows: NCI Yeast Anticancer Drug Screen. Data for the sgs1 mgt1 strain (AID 161).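 Further: 0% = growth of cultures given vehicle only.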 Conditions: S. cerevisiae sgs1 mgt1 strain, at 50.0 µM, active compounds read high.
A short description of test [4]: NCI Yeast Anticancer Drug Screen. Data for the cln2 rad14 strain (AID 165).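 Further: 0% = growth equal to vehicle treated cultures.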 To be noted: S. cerevisiae cln2 rad14 strain, at 50.0 µM, active compounds read high.
Test [5] is described as follows: NCI Yeast Anticancer Drug Screen. Data for the bub3 strain (AID 167). Conditions: S. cerevisiae bub3 mutant strain, at 50.0 µM, active compounds read high.
Test [6] in a line: NCI Yeast Anticancer Drug Screen. Data for the mlh1 rad18 strain (AID 175). Conditions: S. cerevisiae mlh1 rad18 strain growth inhibition; at 50.0 µM; active compounds read high.

Values joined by “and” are separate entries in the source; they are usually repeats but may differ in a detail not shown here. Identical values can stand only once. The entries are a selection whose mix differs from that of the whole data set. Some structures show a salt or complex split into parts, the way the source records it. Active and inactive are the calls of the source. No stated cut-off is given here; in the data, active means growth inhibition above about 70%; inactive means the rest.

`CCN(CC)CCOC(=O)C(O)(c1cccc(C)c1C)C1CCCCC1` (stereo not drawn): the growth inhibition in test [1] was inactive: 0.8%; in test [2] it was inactive: 2.1%; in test [3], inactive: -28.9%; in test [4], inactive: -18.8%; in test [5] it was inactive: -0.25%; in test [6] it was inactive: 4.35%.

In the case of `ClCCN(CCCl)[PH+]1NCCCO1.ClCCN(CCCl)[PH+]1NCCCO1.[Cl][Pt][Cl]` (stereo not drawn), the growth inhibition was inactive: 2.2% and inactive: -0.25% in test [1]; inactive: 7.3% and inactive: 1.2% in test [2]; inactive: 8.05% and inactive: 9.55% in test [3]; inactive: -11.7% and inactive: -9% in test [4]; inactive: -2.8% and inactive: -5.2% in test [5]; inactive: 9.05% and inactive: 9.4% in test [6].

Turning to `N=P(c1ccccc1)(c1ccccc1)c1ccccc1.O=[N+]([O-])c1cc([N+](=O)[O-])c(O)c([N+](=O)[O-])c1`, the growth inhibition was inactive: 12.4% in test [1]; inactive: -1.95% in test [2]; inactive: 3.15% in test [3]; inactive: -6.95% in test [4]; inactive: -3.25% in test [5]; inactive: 12% in test [6].

Regarding `CCCCCCC[CH2][Sn]([CH2]CCCCCCC)([O]c1c([N+](=O)[O-])cc([N+](=O)[O-])cc1[N+](=O)[O-])[O]c1c([N+](=O)[O-])cc([N+](=O)[O-])cc1[N+](=O)[O-]`, the growth inhibition is inactive: 13.2% in test [1]; inactive: -21.1% in test [2]; inactive: -5.6% in test [3]; inactive: 1.6% in test [4]; inactive: -17.5% in test [5]; inactive: 9.05% in test [6].

As for `CCCC(CCC)CN(C)C.O=[N+]([O-])c1cc([N+](=O)[O-])c(O)c([N+](=O)[O-])c1`, the growth inhibition is inactive: 34.1% in test [1]; inactive: 17.9% in test [2]; inactive: 37.7% in test [3]; inactive: 10.2% in test [4]; inactive: 2% in test [5]; inactive: 21.9% in test [6].

As for `CN(C)CCOC(=O)C(O)(c1ccccc1)C1CCCCC1` (stereo not drawn), the growth inhibition in test [1] was inactive: -5.3%; in test [2], inactive: 9.1%; in test [3], inactive: 9.95%; in test [4] it was inactive: 21.4%; in test [5] it was inactive: 5%; in test [6], inactive: 1.15%.

As to `O=C(OCCC(F)([N+](=O)[O-])[N+](=O)[O-])OCC(F)([N+](=O)[O-])[N+](=O)[O-]`, the growth inhibition was active: 90.7% in test [1]; active: 92.8% in test [2]; active: 92.5% in test [3]; active: 90.8% in test [4]; active: 91% in test [5]; active: 89% in test [6].

As for `Cc1cc2c(cn1)CNC2=O.O=[N+]([O-])c1cc([N+](=O)[O-])c(O)c([N+](=O)[O-])c1`, the growth inhibition in test [1] was inactive: 38.5%; in test [2] it was inactive: -1.35%; in test [3], inactive: 22.7%; in test [4] it was inactive: -24.9%; in test [5], inactive: -0.65%; in test [6], inactive: 21.1%.

For the compound `COc1ccc2nccc(C)c2c1.O=[N+]([O-])c1cc([N+](=O)[O-])c(O)c([N+](=O)[O-])c1`, the growth inhibition is inactive: 33.7% in test [1]; inactive: 12.4% in test [2]; inactive: 12.6% in test [3]; inactive: 4.05% in test [4]; inactive: -1.9% in test [5]; inactive: 16.6% in test [6].

For the compound `CC(C)CC(C)NCCO.O=[N+]([O-])c1cc([N+](=O)[O-])c(O)c([N+](=O)[O-])c1`, the growth inhibition was inactive: 4.65% in test [1]; inactive: 11.9% in test [2]; inactive: 0.6% in test [3]; inactive: -22.1% in test [4]; inactive: -9.75% in test [5]; inactive: -2.85% in test [6].

Consider `O=[N+]([O-])c1cc([N+](=O)[O-])c(O)c([N+](=O)[O-])c1`, for which the growth inhibition is inactive: 0.1% in test [1]; inactive: -18.9% in test [2]; inactive: -4.5% in test [3]; inactive: 11.4% in test [4]; inactive: -2.55% in test [5]; inactive: 12.2% in test [6].

For the compound `CCCN(CCC)C1C=CCCC1.O=[N+]([O-])c1cc([N+](=O)[O-])c(O)c([N+](=O)[O-])c1`, the growth inhibition in test [1] was inactive: -3.55%; in test [2], inactive: 0.35%; in test [3], inactive: -2.95%; in test [4] it was inactive: -26.8%; in test [5] it was inactive: -2.5%; in test [6], inactive: -0.65%.

With `Cc1cc2cc3ccccc3cc2c2ccccc12.O=C1c2cc([N+](=O)[O-])ccc2-c2c1cc([N+](=O)[O-])cc2[N+](=O)[O-]`, the growth inhibition is inactive: -6.05% in test [1]; inactive: 6.55% in test [2]; inactive: 8.05% in test [3]; inactive: -13% in test [4]; inactive: -4.75% in test [5]; inactive: 19.4% in test [6].

Turning to `CC(=O)C(CN(C)C)CN(C)C.O=[N+]([O-])c1cc([N+](=O)[O-])c(O)c([N+](=O)[O-])c1`, the growth inhibition in test [1] is inactive: 26.4%; in test [2] it was inactive: 14%; in test [3], inactive: 5.7%; in test [4], inactive: -5.25%; in test [5] it was inactive: 5.8%; in test [6], inactive: 28.8%.

Consider `COP(C)(=O)O.[Ce]`, for which the growth inhibition in test [1] was inactive: -1.45%; in test [2], inactive: -12.6%; in test [3], inactive: 11.7%; in test [4], inactive: -30.9%; in test [5], inactive: -3.35%; in test [6], inactive: 14.8%.

On to `C=CCc1cccc2ccccc12.O=[N+]([O-])c1cc([N+](=O)[O-])c(O)c([N+](=O)[O-])c1`, for which the growth inhibition was inactive: 15.2% in test [1]; inactive: -1.15% in test [2]; inactive: 18.9% in test [3]; inactive: -1.2% in test [4]; inactive: 3.8% in test [5]; inactive: 21.6% in test [6].

For `COc1ccc2ccccc2n1.O=[N+]([O-])c1cc([N+](=O)[O-])c(O)c([N+](=O)[O-])c1`, the growth inhibition is inactive: 59.8% in test [1]; inactive: 10.3% in test [2]; inactive: 41.8% in test [3]; inactive: 10.2% in test [4]; inactive: 5.1% in test [5]; inactive: 38.6% in test [6].

For `O=P(Cl)(N1CCCC1)N1CCCC1`, the growth inhibition was inactive: 8.8% in test [1]; inactive: -12.7% in test [2]; inactive: -4.35% in test [3]; inactive: -33.4% in test [4]; inactive: -1.35% in test [5]; inactive: -4.05% in test [6].

Regarding `CC(C)CCNC(C)(C)CO.O=[N+]([O-])c1cc([N+](=O)[O-])c(O)c([N+](=O)[O-])c1`, the growth inhibition is inactive: 43.9% in test [1]; inactive: 16.1% in test [2]; inactive: 33.8% in test [3]; inactive: -17.9% in test [4]; inactive: -0.5% in test [5]; inactive: 30.1% in test [6].

With `CCOC(=O)C1CCCN1CCCC#N.O=[N+]([O-])c1cc([N+](=O)[O-])c(O)c([N+](=O)[O-])c1`, the growth inhibition in test [1] is inactive: 36.6%; in test [2], inactive: 16.9%; in test [3], inactive: 34.9%; in test [4], inactive: 21.2%; in test [5], inactive: 1.6%; in test [6], inactive: 25.4%.

Consider `CN1CCCC1.O=[N+]([O-])c1cc([N+](=O)[O-])c(O)c([N+](=O)[O-])c1`, for which the growth inhibition in test [1] is inactive: 3.9%; in test [2], inactive: -2.9%; in test [3] it was inactive: 14.4%; in test [4] it was inactive: 7.85%; in test [5] it was inactive: 8.6%; in test [6], inactive: 11.7%.

Regarding `O=[N+]([O-])C(F)(CCNCC(F)([N+](=O)[O-])[N+](=O)[O-])[N+](=O)[O-]`, the growth inhibition is active: 90.8% in test [1]; active: 92.5% in test [2]; active: 92.6% in test [3]; active: 90.3% in test [4]; active: 91.3% in test [5]; active: 88.5% in test [6].

Take `Nc1c([N+](=O)[O-])cc([N+](=O)[O-])c(N)c1[N+](=O)[O-]`: the growth inhibition in test [1] was inactive: 18.7%; in test [2], inactive: 20.9%; in test [3], inactive: 18.2%; in test [4], inactive: -15.4%; in test [5] it was inactive: 2.4%; in test [6] it was inactive: 17.6%.
